Bioassay records from PubChem.
Most compounds without a hit are left out; they make up all but 1.2% or so of the library.
Yeast UUG start = alters start codon recognition fidelity in yeast; S. cerevisiae UUG-firefly luciferase reporter, luminescence/redox ratio; activity score, % at 18.7 µM; actives 0.13% (n = 350,000); AID 602363;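 active = replicate mean at a twofold rise or more, about +100% in these data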;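 also: firefly luciferase made from a UUG start codon reports start codon fidelity; reporter light over untreated wells divided by growth signal over untreated wells; some hits fall short of that in this replicate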
Cneo AK release = Cryptococcus neoformans lysis via adenylate kinase release; lysis activity, % at 15 µM; C. neoformans lysis, adenylate kinase release luminescence, 4 h; normalised: neutral wells 0, clomiphene wells 100; AID 651654; actives 0.2% (n = 360,000);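 active means mean lysis activity across replicates of at least 80%, whatever share of replicates individually reach that level; inactive means mean lysis activity below 80%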
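Material – log-phase Cryptococcus neoformans yeast cells · Input – 5 × 10^6 yeast cells/mL · Medium – fresh YPD growth medium · Doses – single compound concentration per well · Timing – static 4 h at 37 °C with compound, 1 h detection · Detection – adenylate kinase release luminescence · Read-out – signal increase indicating cell lysis · Control set – Clomiphene as positive lysis control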
Statin myotox sup = suppressors of simvastatin-induced myotoxicity in C2C12 myotubes; ATP luminescence, 48 h; scaled: DMSO 0, geranylgeraniol control 100; actives 0.78% (n = 330,000); AID 602340; rescue of ATP level, % at 7.49 µM;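 active means mean ATP rescue above about 67%, or every replicate alone reaching that limit, limit read from the data, passing the limit was not always enough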;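 further: myotubes were challenged with 10 µM simvastatin during compound exposure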
N-glyco inh = N-linked glycosylation inhibition. D54 ERlucT glycosylation luciferase reporter, 24 h; percent of 100 nM tunicamycin response. reporter increase, % at 12.5 µM. actives 0.23% (n = 360,000). AID 588692;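 active means mean luciferase reporter signal, scaled so untreated is 0 and the glycosylation-blocking control 100, at or above a set limit in every replicate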;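 further: luciferase carries N-glycosylation sites so blocking glycosylation raises the light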
miR-122 sensor = inhibitors of miR-122 in Huh7 cells; activation (reporter increase), % at 12.5 µM; AID 602342; Huh7 miR-122 Renilla luciferase sensor, 48 h; neutral wells = 0, positive control = 100; actives 0.3% (n = 340,000);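 active means mean replicate activation score at least 90 and every replicate individually at or above 90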;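 further: higher luciferase means less miR-122 activity so hits act as miR-122 inhibitors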
Large screens that a line does not name were inactive; [ ] = dose if it differs, or a comment.

COc1ccc(-c2ccc(C(c3c(C)[nH][nH]c3=O)c3c(C)[nH][nH]c3=O)o2)c([N+](=O)[O-])c1	N-glyco inh 34 (no result: Yeast UUG start, Cneo AK release, Statin myotox sup)
C=CCn1c(-c2csc(-c3ccccc3)n2)n[nH]c1=S	Statin myotox sup 77
COc1ccc(CNc2ncnc3c2[nH]c2ccccc23)cc1	none (no result: Statin myotox sup)
CCOc1ncnc2c1[nH]c1ccccc12	Statin myotox sup 131
Cn1c(=O)c2c(nc(NC3CCCCC3)n2CC(O)COc2ccccc2)n(C)c1=O (stereo not drawn)	Statin myotox sup 81
Cn1c(=O)c2c(nc(N3CCCCCC3)n2CC(O)COc2ccccc2)n(C)c1=O (stereo not drawn)	none
CCCNC(=O)N(C)C[C@@H]1Oc2cc(-c3cncnc3)ccc2S(=O)(=O)N([C@@H](C)CO)C[C@H]1C	none (no result: Yeast UUG start, N-glyco inh)
CCOC(=O)CN1C(=O)C(C)(C)Oc2ccc(C(=O)Nc3ccccc3)cc21	miR-122 sensor 159
Cc1ccc(-n2nnc(-c3nccs3)n2)cc1	miR-122 sensor 100
CC(C)NC(=O)N(C)C[C@@H]1Oc2ncc(-c3ccc(C(=O)N(C)C)cc3)cc2C(=O)N([C@@H](C)CO)C[C@@H]1C	none (no result: N-glyco inh)
O=C(Nc1nnc(C2CC2)s1)c1cc(-c2ccccc2)nn1-c1ccccc1	Statin myotox sup 78
O=C(NC1CCCC1)N1CCCCN2[C@H](CO)[C@H](c3ccc(-c4cncnc4)cc3)[C@@H]2C1	Cneo AK release 103 (no result: Statin myotox sup, N-glyco inh)
C/C=C/c1ccc([C@@H]2[C@@H](CO)N3CCCCN(C(=O)Nc4ccc(OC)cc4)C[C@H]23)cc1	Cneo AK release 102 (no result: Statin myotox sup, N-glyco inh)
CC1CCN(C(=O)CSc2nnc(CNC(=O)COc3ccc(Cl)cc3)o2)CC1	Statin myotox sup 96
Cc1oc2c(Cl)c(Cl)c(O)c(CN(C)C)c2c1C(=O)c1ccc(Cl)cc1	none
CC(C)COC(=O)N(C)C[C@H]1OCc2ccccc2-c2ccccc2C(=O)N([C@@H](C)CO)C[C@@H]1C	none (no result: Yeast UUG start, N-glyco inh, miR-122 sensor)
O=C(NC1CCCC1)C(c1ccsc1)N(C(=O)Cc1cccs1)c1ccc(F)cc1 (stereo not drawn)	none (no result: miR-122 sensor)
O=C(NC1CCCC1)C(c1ccccc1F)N(C(=O)Cc1cccs1)c1ccc2c(c1)OCCO2 (stereo not drawn)	miR-122 sensor 172 (no result: Yeast UUG start, Cneo AK release)
COc1ccccc1C(=O)Nc1ccc2c(c1)C(=O)N(C)C[C@H](OC)[C@@H](C)CN(CC1CC1)[C@@H](C)CO2	Cneo AK release 96 (no result: N-glyco inh, miR-122 sensor)
COc1ccccc1C(=O)Nc1ccc2c(c1)C(=O)N(C)C[C@@H](OC)[C@@H](C)CN(CC1CC1)[C@H](C)CO2	none (no result: N-glyco inh, miR-122 sensor)
CCCC(=O)Nc1ccc2c(c1)OC[C@H](C)N(Cc1cncnc1)C[C@@H](C)[C@H](OC)CN(C)C2=O	none (no result: N-glyco inh, miR-122 sensor)
CCCC(=O)Nc1ccc2c(c1)OC[C@@H](C)N(Cc1cncnc1)C[C@@H](C)[C@@H](OC)CN(C)C2=O	Cneo AK release 94 (no result: N-glyco inh, miR-122 sensor)
CO[C@H]1CN(C)C(=O)c2cc(NC(=O)C3CC3)ccc2OC[C@@H](C)N(Cc2cncnc2)C[C@H]1C	Cneo AK release 84 (no result: Yeast UUG start, N-glyco inh, miR-122 sensor)
CCCNC(=O)Nc1ccc2c(c1)C(=O)N(C)C[C@H](OC)[C@@H](C)CN(Cc1cccnc1)[C@H](C)CO2	Cneo AK release 81 (no result: N-glyco inh, miR-122 sensor)
CN(C)CC(=O)Nc1ccc2c(c1)[C@@H]1C[C@@H](CC(=O)NCc3ccc4c(c3)OCO4)O[C@H](CO)[C@@H]1O2	none (no result: N-glyco inh)
Cc1ccc(S(=O)(=O)NCc2ccncc2)cc1C	none (no result: Yeast UUG start, Cneo AK release)
Cc1cc(Cl)c(S(=O)(=O)NCc2ccncc2)cc1OCC(N)=O	Statin myotox sup 129
Cc1cc(Cl)c(S(=O)(=O)NCc2ccccc2)cc1OCC(N)=O	miR-122 sensor 174
Cc1cc(C)c(C)c(S(=O)(=O)NCc2ccncc2)c1C	miR-122 sensor 122 (no result: Yeast UUG start, Cneo AK release)
CN1CCN(C2=C(NS(=O)(=O)c3cccs3)C(=O)c3ccccc3C2=O)CC1	none (no result: Statin myotox sup)
CCOc1ccccc1N1CCN(C2=C(NS(=O)(=O)c3cccs3)C(=O)c3ccccc3C2=O)CC1	Statin myotox sup 110
C[C@H]1CN([C@@H](C)CO)C(=O)Cc2cc(N(C)C)ccc2O[C@H]1CN(C)S(=O)(=O)c1ccccc1	none (no result: Yeast UUG start, N-glyco inh)
CCNC(=S)NNC(=O)C1CCCCC1	miR-122 sensor 140 (no result: Statin myotox sup)
CCNC(=S)N1CCC(NC(=O)C2CCCCC2)CC1	none (no result: Statin myotox sup, N-glyco inh)
COC(=O)c1cc(S(=O)(=O)NCCc2ccccc2)c[nH]1	Statin myotox sup 120
COC(=O)c1cc(S(=O)(=O)NCC(C)c2ccccc2)c[nH]1 (stereo not drawn)	none
CN(C)C(=O)C[C@@H]1C[C@@H]2c3cc(NC(=O)Nc4ccc(F)cc4)ccc3O[C@@H]2[C@@H](CO)O1	none (no result: Yeast UUG start, N-glyco inh)
COc1ccc(CN2C[C@H](O)COC[C@H]3O[C@H](CC(=O)NCCN4CCCC4)CC[C@@H]32)cc1	none (no result: N-glyco inh)
O=C(O)CCC(=O)N1CCN(c2ncccc2C(F)(F)F)CC1	none (no result: miR-122 sensor)
O=C(Nc1ccc2c(c1)OCCO2)c1cccc2nc3ccccc3nc12	Statin myotox sup 74
COc1ccc(S(=O)(=O)Nc2ccc3c(c2)C(=O)N([C@@H](C)CO)C[C@H](C)[C@H](CN(C)C(=O)Nc2ccccc2)OCCCC[C@@H](C)O3)cc1	miR-122 sensor 120[16.7 µM] (no result: Statin myotox sup, N-glyco inh)
COc1ccc(S(=O)(=O)Nc2ccc3c(c2)C(=O)N([C@@H](C)CO)C[C@@H](C)[C@@H](CN(C)S(=O)(=O)c2ccc(F)cc2)OCCCC[C@H](C)O3)cc1	Statin myotox sup 151 (no result: N-glyco inh)
COc1ccc(S(=O)(=O)Nc2ccc3c(c2)C(=O)N([C@@H](C)CO)C[C@@H](C)[C@@H](CN(C)S(=O)(=O)c2cccs2)OCCCC[C@H](C)O3)cc1	Statin myotox sup 91 (no result: N-glyco inh)
COc1ccc(S(=O)(=O)Nc2ccc3c(c2)C(=O)N([C@@H](C)CO)C[C@@H](C)[C@@H](CN(C)S(=O)(=O)c2ccc(F)cc2)OCCCC[C@@H](C)O3)cc1	Statin myotox sup 133 (no result: N-glyco inh)
C[C@H]1CN([C@@H](C)CO)C(=O)c2cc(NC(=O)c3ccncc3)ccc2O[C@H]1CN(C)C	none (no result: N-glyco inh)
O=C(C[C@H]1C=C[C@@H](NC(=O)Nc2ccc(F)cc2)[C@@H](CO)O1)NCc1cccc(F)c1	none (no result: N-glyco inh, miR-122 sensor)
O=C(O)c1cccc(Nc2c([N+](=O)[O-])c(=O)oc3ccccc23)c1	none
O=c1oc2ccccc2c(Nc2cccc(O)c2)c1[N+](=O)[O-]	Statin myotox sup 132
CNC[C@@H]1OCCCC[C@@H](C)Oc2ccc(NC(=O)Nc3c(C)noc3C)cc2C(=O)N([C@H](C)CO)C[C@@H]1C	none (no result: N-glyco inh)
O=S(=O)(NCc1ccco1)c1ccc(S(=O)(=O)N2CCCCC2)cc1	Statin myotox sup 118
CN1C[C@@H]2C(c3ccc(C(F)(F)F)cc3)C3(c4cccnc4)CC2(C3)[C@H]1c1ccccc1 (stereo partly drawn)	none
COc1ccc(NS(=O)(=O)c2cccc(NC(=O)COc3ccccc3[N+](=O)[O-])c2)cc1	miR-122 sensor 146
O=C(C[C@H]1C[C@@H]2c3cc(NC(=O)C4CCOCC4)ccc3O[C@@H]2[C@@H](CO)O1)NCc1ccccn1	none (no result: N-glyco inh)
